This is an account of results in ChEMBL document CHEMBL1127636, “The development of cyclic sulfolanes as novel and high-affinity P2 ligands for HIV-1 protease inhibitors” (J Med Chem, 1994).

pIC50: −log10 of the molar value.

In the assay the target is Human immunodeficiency virus type 1 protease (Human immunodeficiency virus 1, UniProt Q72874). Description: Inhibitory activity against HIV-1 protease. In short, it runs like this: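 Purified HIV-1 protease, prepared by a previously described method. IC50 reported; determinations were single (n = 1) unless otherwise indicated.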

For orientation: pIC50 means −log10 of the IC50, conventionally taken in molar units. A lower pIC50 goes with a high IC50. The compound `CC(C)(C)NC(=O)[C@@H]1C[C@@H]2CCCC[C@@H]2CN1C[C@@H](O)[C@H](Cc1ccccc1)NC(=O)O[C@H]1CCOC1` had a negative logarithm of the IC50 (pIC50) of 6.88.
